These results are taken from EP0255343A2, “L-aspartylfenchylamino alcohol derivatives” (priority 1986, dated 1988).

For the data set the following is noted: colorless and odorless powder.

In the case of “3-N-(L-aspartyl)amino-1-fenchyl-2-butanol [Compound A]”, the solubility in water result is “readily soluble in water”.
As for “3-N-(L-aspartyl)amino-4-fenchyl-2-butanol [Compound B]”, the solubility in water result was “readily soluble in water”.
